# Screening data (PubChem)
# Shown are actives, neighbours in structure and some others; about 13% of the full set was active somewhere.
# Sfp inh: blocks B. subtilis Sfp PPTase activity | Q9F4F7 | hit rate 3.5% among 310,000 | Potency, µM, without a hit: max response, negative = inhibition, most hits filed as inhibitors | AID 1490 | Biochemical Sfp PPTase activity, qHTS; active means well fitted inhibition curve with a large enough effect; inconclusive means small, poorly fitted or top-dose-only effect, or another doubt; inactive means no such curve, though single readings can be large or run the other way;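 further: the enzyme is Sfp with the accession as filed and its product quenches rhodamine fluorescence; potency means the concentration at half of the fitted maximal effect; 0% = enzyme reaction without inhibitor and -100% = no enzyme wells; top concentration of the series not given in the record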
#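 Compounds were incubated with enzyme (final 15 nM) for 15 min at room temperature before substrate addition started the reaction. Fluorescence at 525 nm excitation, 598 nm emission was recorded immediately and after 30 minutes.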
# Lamin A splicing: modulators of lamin A splicing | HeLa LMNA splicing GFP/RFP minigene ratio, 48 h | Potency, µM (highest dose often 46.1 µM), for inactives: at the highest dose ratio change, negative = inhibition, actives largely listed as inhibitors | hit rate 0.01% among 200,000; active means well fitted inhibition curve with a large enough effect in the signal ratio, with a control signal flat, not every such curve was filed as active; inconclusive means small, poorly fitted or top-dose-only effect, or effect the other way, or a change in a side signal; the % refers to the signal ratio; further: potency means the concentration at half of the fitted maximal effect; on the % scale 0 is the no-effect control and ±100 the full control effect
#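 S3 HeLa cells stably expressing lamin A-EGFP splicing minigene plus DsRed2, 600 cells/well, 48 h compound exposure at 37C. Laser-scanning cytometry; analysed as GFP (500-530 nm)/RFP (575-640 nm) total intensity ratio; 0.5% DMSO vehicle.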
# G9a inh: G9a (human) methyltransferase inhibition; Q96KQ7; G9a H3K9 monomethylation, AlphaScreen, 2 h; Potency, µM (doses to about 102 µM), without a hit: at the top dose activity, negative = inhibition, most hits filed as inhibitors; hit rate 8.8% among 350,000; AID 504332; further: potency means the concentration at half of the fitted maximal effect; on the % scale 0 is the no-effect control and ±100 the full control effect; nearly all actives have a fitted effect of over 75% in size
#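 AlphaScreen read-out: biotin-H3K9 peptide (500 nM) methylation by 20 nM enzyme with 20 uM SAM, 2 h at room temperature after 15 min compound preincubation; anti-monomethyl H3K9 antibody plus donor/acceptor beads, 10 min dark.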
# miR-21 reporter: raises the signal of a miR-21 reporter | HeLa miR-21 FLuc reporter, luciferase, 48 h | Potency, µM (highest dose often 38.3 µM), for inactives: at the highest dose reporter change, positive = more light | 340,000 tested, under 10 active | AID 2288; active = well fitted rising curve with a large enough effect; inconclusive = small, poorly fitted or top-dose-only effect; inactive = no such curve, though single readings can be large or run the other way;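 also: % of control where 0% means no effect; miR-21 action dims this reporter so a rising signal means less miR-21 action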
#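 HeLa cells stably expressing CMV-driven firefly luciferase with a downstream miR-21 binding sequence, endogenously expressing miR-21, were treated with titrations (up to about 40uM final) for 48 hours at 37 degree Celsius. Luciferase luminescence was read after lysis.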
# ALDH1A1 block: inhibitors of human aldehyde dehydrogenase 1A1 | Purified ALDH1A1, NADH fluorescence, propionaldehyde substrate | Potency, µM (top dose mostly 75.3 µM), for inactives: at the top dose activity, negative = inhibition, actives largely listed as inhibitors | hit rate 7.3% among 220,000; active means well fitted inhibition curve with a large enough effect, not every such curve was filed as active; inconclusive means small, poorly fitted or top-dose-only effect, or another doubt; inactive means no such curve, though single readings can be large or run the other way;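 further: potency means the concentration at half of the fitted maximal effect; plate controls were no enzyme wells and a reference inhibitor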
# JMJD2E inh: JMJD2E (human) inhibition. hit rate 1.6% among 230,000. JMJD2E catalytic domain, FDH-coupled NADH fluorescence (FDH is formaldehyde dehydrogenase). B2RXH2. AID 2147. Potency, µM (highest dose often 57.1 µM), without a hit: at the highest dose activity change, negative = inhibition, most hits filed as inhibitors; active means well fitted inhibition curve with a large enough effect, not every such curve was filed as active; inconclusive means small, poorly fitted or top-dose-only effect, or another doubt; inactive means no such curve, though single readings can be large or run the other way;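 further: potency means the concentration at half of the fitted maximal effect; 0% = wells with enzyme and -100% = buffer wells without enzyme; nearly all actives have a fitted effect of over 50% in size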
# An asterisk follows results filed as active; ? = inconclusive; . = no result; [ ] = dose if it differs, or a comment. Unless noted, the call rests on the fitted dose curve; in most records, active means well fitted curve in the direction sought with a large enough effect; inconclusive means small, poorly fitted or top-dose-only effect, or another doubt; inactive means no such curve, though single readings can be large; an effect the other way counts as inactive or inconclusive.
# Assay codes: A = Sfp inh; B = Lamin A splicing; C = G9a inh; D = miR-21 reporter; E = ALDH1A1 block; F = JMJD2E inh
> COc1ccc(C2(CNC(=O)c3cccc([N+](=O)[O-])c3)CCOCC2)cc1
  A = 6%	B = -8%	C = -11%	D = -8%	E = -1%	F = 0%
> Cc1ccc(CNC(=O)CN(c2ccc(Cl)cc2Cl)S(=O)(=O)c2ccccc2)cc1
  A = .	B = .	C = -27%[59 µM]	D = ?	E = .	F = .
> COc1ccc(C(=O)NCCc2ccc(Cl)cc2)cc1S(=O)(=O)N1CCCCC1C (stereo not drawn)
  A = .	B = .	C = -20%[59 µM]	D = .	E = .	F = .
> COc1ccc2[nH]cc(CCNC(=S)NCCc3ccccc3)c2c1
  A = 26%	B = -22%[46 µM]	C = 45µM*	D = -5%	E = -2%	F = 1%
> COc1ccc(OC)c(NC(=O)NCCc2c[nH]c3ccccc23)c1
  A = 6%	B = .	C = 79µM*	D = 4%	E = .	F = .
> COc1cc(NC(=S)NCCc2c[nH]c3ccccc23)c(OC)cc1Cl
  A = 23%	B = ?	C = 45µM*	D = 5%	E = 7%	F = 3%
> COc1ccc(C(=O)NCCc2c[nH]c3ccccc23)cc1S(=O)(=O)N1CCCCC1C (stereo not drawn)
  A = .	B = .	C = 2.8µM*	D = .	E = .	F = .
> COc1ccc2[nH]cc(CCNC(=O)Nc3ccccc3)c2c1
  A = 5%	B = .	C = -26%	D = -3%	E = .	F = .
> CCCCNC(=O)C1CCC(CNS(=O)(=O)c2ccc(Cl)cc2)CC1 (stereo not drawn)
  A = .	B = 16%[46 µM]	C = 17%[59 µM]	D = 0%	E = .	F = .
> O=C(/C=C/Nc1ccccc1)c1ccccc1
  A = 1%	B = 7%	C = 11%[0.501 µM]	D = -43%	E = ?	F = 1%
> CN(C)c1ccc(N/C=C/C(=O)C(C)(C)C)cc1
  A = 50µM*	B = 1%	C = ?	D = -28%	E = ?	F = 7.1µM*
> CN(C)c1ccc(N/C=C/C(=O)c2ccccc2)cc1
  A = 20µM*	B = -10%	C = 5.6µM*	D = -59%	E = ?	F = ?
> Cc1cccc(-n2ncc3c2CCCC3NC(=O)CCN2Cc3ccccc3C2=O)c1C (stereo not drawn)
  A = 8%	B = .	C = -13%	D = 2%	E = .	F = .
> c1ccc(-c2ccc(N3CCCC4(CCNCC4)C3)cc2)cc1
  A = 28µM*	B = .	C = -46%[12.7 µM]	D = .	E = ?	F = .
> C[C@@H]1CC[C@H]2C(=O)O[C@H](CN=[N+]=[N-])CN2[C@@H]1c1ccc(Br)cc1
  A = 5%	B = .	C = .	D = .	E = ?	F = .
> O=C(CCSc1ccc(Cl)cc1)N1CCN(c2ccc(O)cc2)CC1
  A = 79µM*	B = .	C = 32µM*	D = -10%	E = .	F = -4%
> O=C(COc1cccc(C(F)(F)F)c1)N1CCN(c2ccc(O)cc2)CC1
  A = 28µM*	B = ?	C = 7.9µM*	D = 3%	E = ?	F = ?
> O=C(CCOc1ccccc1)N1CCN(c2ccc(O)cc2)CC1
  A = 50µM*	B = .	C = ?	D = -11%	E = .	F = ?
> O=C(CCCOc1ccccc1)N1CCN(c2ccccc2)CC1
  A = 7%	B = 4%	C = 0%	D = -56%	E = -4%	F = -6%
> CC1CC(=O)N(CC(=O)Nc2ccc(OC(F)(F)F)cc2)c2ccccc2S1 (stereo not drawn)
  A = .	B = .	C = -3%[59 µM]	D = 10%	E = .	F = .
> CCCCNC(=O)c1sc2nc(C)cc(COC)c2c1-n1cccc1
  A = ?	B = ?	C = 3%[0.0925 µM]	D = 7%	E = ?	F = 3%
> Cc1cc(C)c2c(-n3cccc3)c(C(=O)NNS(=O)(=O)c3ccccc3)sc2n1
  A = -8%	B = 12%	C = 10%	D = -12%	E = 4.5µM*	F = 1%
> COCc1cc(C)nc2sc(C(=O)NN)c(-n3cccc3)c12
  A = 1%	B = .	C = -36%	D = -24%	E = 0.5µM*	F = 43%
> Cc1cc(C)c2c(-n3cccc3)c(C(=O)NNS(=O)(=O)c3ccc(Cl)cc3)sc2n1
  A = 13%	B = 9%	C = ?	D = -2%	E = 1µM*	F = -4%
> Cc1cc(C)c2c(-n3cccc3)c(C(=O)NCc3cccc(F)c3)sc2n1
  A = .	B = .	C = -13%[59 µM]	D = -11%	E = .	F = .
> Cc1cc(C)c2c(-n3cccc3)c(C(=O)O)sc2n1
  A = -12%	B = ?	C = ?	D = -8%	E = 22µM*	F = -6%
> Cc1ccc(CNC(=O)c2sc3nc(C)cc(C)c3c2-n2cccc2)cc1
  A = .	B = .	C = -22%[59 µM]	D = 1%	E = .	F = .
> O=C(CCCn1c(=O)[nH]c2ccccc2c1=O)NCc1ccccc1Cl
  A = .	B = 5%[46 µM]	C = 11%[59 µM]	D = -25%	E = .	F = .
> CC(C)OC(=O)c1cc2c(OC[C@@H](O)CNC(C)(C)C)cccc2[nH]1
  A = 2%	B = .	C = .	D = .	E = ?	F = ?
> COc1ccc(CN(Cc2cc3ccc(C)cc3[nH]c2=O)Cc2nnnn2C2CCCC2)cc1
  A = -15%	B = -5%	C = -48%[59 µM]	D = 13%	E = ?	F = ?
> Cc1cc(C)c2cc(CN(Cc3nnnn3C3CCCCC3)CC3CCCO3)c(=O)[nH]c2c1 (stereo not drawn)
  A = -13%	B = 4%	C = -32%[12.7 µM]	D = -6%	E = 4.5µM*	F = ?
> Cc1ccc2cc(CN(Cc3nnnn3C3CCCCC3)CC3CCCO3)c(=O)[nH]c2c1 (stereo not drawn)
  A = 7%	B = 6%	C = 18%	D = -12%	E = 8.9µM*	F = -7%
> Cc1cc2cc(CN(Cc3nnnn3C3CCCCC3)CC3CCCO3)c(=O)[nH]c2cc1C (stereo not drawn)
  A = 50µM*	B = 3%	C = ?	D = -10%	E = ?	F = -12%
> Cc1ccc(C)n1-c1nnc(N2CCCC(C(=O)NCc3ccc(Cl)cc3)C2)s1 (stereo not drawn)
  A = .	B = .	C = -12%[59 µM]	D = ?	E = .	F = .
> Cc1ccc(/C=N/NC(=O)c2nnn(-c3nonc3N)c2-c2ccc3c(c2)OCO3)s1
  A = 13%	B = .	C = 25%	D = 0%	E = .	F = .
> O=C(c1cccc2ccccc12)C1CCCN(C(=O)CCCn2cncn2)C1 (stereo not drawn)
  A = 15%	B = -11%[46 µM]	C = -25%	D = -7%	E = 10µM*	F = ?
> COc1c(C)cc(C(=O)C2CCCN(C(=O)CCCn3cncn3)C2)cc1C (stereo not drawn)
  A = 3%	B = .	C = -1%[59 µM]	D = 4%	E = .	F = -3%
> CC(C)CN=Cc1c(O)c([N+](=O)[O-])cc2oc3c(c12)CCCC3
  A = -15%	B = -12%	C = 14%[59 µM]	D = -3%	E = 28µM*	F = 13µM*
> CCCN1CCN(c2ncnc3sc(C(=O)Nc4ccc(N(CC)CC)cc4C)c(C)c23)CC1
  A = .	B = -19%[46 µM]	C = 14µM*	D = -1%	E = .	F = .
> COc1cc(C2C=C(C(=O)O)Nc3ncnn32)ccc1O (stereo not drawn)
  A = .	B = .	C = 13µM*	D = 2%	E = .	F = .
> CC(=O)C1=C(C)Nc2ncnn2C1c1ccccc1OCc1ccccc1 (stereo not drawn)
  A = -3%	B = -12%	C = -47%[59 µM]	D = -2%	E = 2%	F = -11%
> CC(C)Oc1ccccc1C1C=C(C(=O)O)Nc2ncnn21 (stereo not drawn)
  A = .	B = .	C = 14µM*	D = -12%	E = .	F = .
> O=C1Nc2ccc([N+](=O)[O-])cc2OC1CCN1CCN(Cc2ccc3c(c2)OCO3)CC1 (stereo not drawn)
  A = 9%	B = .	C = ?	D = 2%	E = -14%	F = -1%
> CC(C)Oc1ccc(C(=O)N(Cc2ccco2)c2ccccn2)cc1
  A = .	B = 7%[46 µM]	C = 3%[59 µM]	D = -31%	E = .	F = .
> CCOc1ccc(OCC(=O)Nc2cc3c(cc2C(=O)O)OCCCO3)cc1
  A = ?	B = .	C = 14µM*	D = -4%	E = .	F = .
> COc1ccc(C(=O)Nc2cc3c(cc2C(=O)O)OCCCO3)c(OC)c1
  A = 15%	B = .	C = 18%[59 µM]	D = -9%	E = .	F = .
> COc1cccc(CCC(=O)Nc2cc3c(cc2C(=O)O)OCCCO3)c1OC
  A = .	B = .	C = 7.9µM*	D = .	E = .	F = .

# A draw from above in order of count of non-hydrogen atoms, high to low:
# Assay codes: A = Sfp inh; B = Lamin A splicing; C = G9a inh; D = miR-21 reporter; E = ALDH1A1 block; F = JMJD2E inh
> Cc1cc(C)c2cc(CN(Cc3nnnn3C3CCCCC3)CC3CCCO3)c(=O)[nH]c2c1 (stereo not drawn)
  A = -13%	B = 4%	C = -32%[12.7 µM]	D = -6%	E = 4.5µM*	F = ?
> CC(C)Oc1ccccc1C1C=C(C(=O)O)Nc2ncnn21 (stereo not drawn)
  A = .	B = .	C = 14µM*	D = -12%	E = .	F = .
> Cc1cc(C)c2c(-n3cccc3)c(C(=O)O)sc2n1
  A = -12%	B = ?	C = ?	D = -8%	E = 22µM*	F = -6%
